miR-21 reporter: miR-21 reporter, rising signal; HeLa miR-21 FLuc reporter, luciferase, 48 h; Potency, µM (doses to about 38.3 µM), for inactives: at the highest dose reporter change, positive = more light; 340,000 tested, under 10 active; AID 2288; active = well fitted rising curve with a large enough effect; inconclusive = small, poorly fitted or top-dose-only effect; inactive = no such curve, though single readings can be large or run the other way;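 further: % of control where 0% means no effect; miR-21 action dims this reporter so a rising signal means less miR-21 action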
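HeLa cells stably expressing CMV-driven firefly luciferase with a downstream miR-21 binding sequence, endogenously expressing miR-21, were treated with titrations (up to about 40uM final) for 48 hours at 37 degree Celsius. Luciferase luminescence was read after lysis.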
Nrf2 block: Nrf2 pathway inhibition; A549 ARE-Fluc reporter, luciferase luminescence, 18-24 h; Potency, µM (titrated, usually from 46 µM), without a hit: at the highest dose activity change, negative = inhibition, most hits filed as inhibitors; AID 504444; hit rate 2.1% among 360,000; also: potency is read from the fitted curve at half-maximal effect; % is scaled to controls: 0 for no effect and ±100 for the full control effect; nearly all actives have a fitted effect of over 60% in size
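A549 ARE_Fluc cells (5000/well, 5% FBS OPTI-MEM) pre-incubated 2 h, then treated with compounds 18-24 h at 37C/5% CO2 in concentration-response. CellTiter-Fluor viability read first; BugLite luciferase luminescence after 15 min at room temperature gives Nrf2 activity.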
Nrf2 ARE act: activates Nrf2 signaling. AID 624171. Potency, µM (doses to about 46.1 µM), without a hit: at the highest dose activation, most hits filed as activators. hit rate 0.31% among 410,000. AREc32 ARE-luciferase reporter (MCF7-derived line), luminescence, 24 h; also: potency is read from the fitted curve at half-maximal effect; % of control where 0% means no effect; nearly all actives have a fitted effect of over 65% in size
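Reporter line AREc32 (ARE-Fluc), seeded overnight in OPTI-MEM with 5% FBS; compound pin-transferred, 24 hr at 37 deg C, 5% CO2; luminescent read-out.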
Mito fusion act: mitochondrial division inhibition or fusion activation; S. cerevisiae fusion-defective mutant growth rescue, CellTiterGlo 48 h; Potency, µM (highest dose often 46.1 µM), for the others: at the highest dose growth rescue (activation), hits mostly activators; hit rate 0.23% among 320,000; AID 485298; also: potency is read from the fitted curve at half-maximal effect; % of control where 0% means no effect; nearly all actives have a fitted effect of over 45% in size
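Temperature-sensitive fusion-defective S. cerevisiae (e.g. fzo1-1, mgm1-5) were grown with compound in YPEG medium (3% ethanol, 3% glycerol) for 48 hours at 37C. Growth rescue was measured as viability by CellTiterGlo luminescence after 10 minutes at ambient.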
GRP78 ERSR act: induces the endoplasmic reticulum stress response in human glioma cells; hit rate 0.02% among 420,000; Potency, µM, inactives show at the top dose activation, usual class: activators; U87-MG GRP78 promoter luciferase reporter, 16 h; also: potency is read from the fitted curve at half-maximal effect; series mostly up to about 76 µM; % of control where 0% means no effect; nearly all actives have a fitted effect of over 35% in size
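Stably transfected U87-MG glioma cells carrying a GRP78-based luciferase sensor; 16 h compound incubation. Luminescence end-point read 10 min after Bright-Glo addition at room temperature.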
A549 tox: kills or reduces viability of A549 cells in Nrf2 counter-screen; A549 ARE-Fluc cells, CellTiter-Fluor viability, 18-24 h; Potency, µM (top dose mostly 46 µM), for inactives: at the top dose activity change, negative = cytotoxicity, actives largely listed as inhibitors; hit rate 0.16% among 390,000; AID 504648; also: potency is read from the fitted curve at half-maximal effect; % is scaled to controls: 0 for no effect and ±100 for the full control effect
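Cytotoxicity counterscreen: CellTiter-Fluor fluorescence was measured in A549 ARE_Fluc cells after 18-24 h of compound exposure in a concentration series. The subsequent BugLite luminescent read reports ARE-luciferase activity.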
* marks the source's active call; other numbers are inactive results; u = inconclusive; x = not tested or not shown. The list is not random: actives were taken first. Their share in the collection is about 2.3%. Unless noted, calls follow the shape of the dose curve; as a rule, active = well fitted curve in the direction sought with a large enough effect; inconclusive = small, poorly fitted or top-dose-only effect, or another doubt; inactive = no such curve, though single readings can be large; an effect the other way counts as inactive or inconclusive.

1) CC(C)(C)c1ccc(C(=O)CCCSC2=C(C#N)C(c3ccco3)C3=C(CCCC3=O)N2)cc1 (stereo not drawn)
2) COc1ccc(-c2csc(NC(=O)c3cc(-c4cccs4)nc4ccccc34)n2)c(OC)c1
3) Cc1nn(CC(=O)N2CCN(c3ccccn3)CC2)c(=O)c2cc3sccc3n12
4) CCCN1CCN(C(=O)Cn2nc(C)n3c(cc4sccc43)c2=O)CC1
5) Oc1ccc2ccccc2c1N=Nc1ccccc1F
6) CN(Cc1ccccc1O)CC1CCCN(CCc2ccc(Cl)cc2)C1 (stereo not drawn)
7) Cc1nnc(-c2ccccc2)o1
8) Cc1cccc(-c2nnc(SCCC(=O)O)o2)c1
assay / compound	1	2	3	4	5	6	7	8
Mito fusion act	1%	-1%	-2%	-4%	1%	-12%	-2%	x
Nrf2 ARE act	3%	0%	0%	1%	3.5µM*	10%	0%	-4%
A549 tox	21µM*	1%	u	13%	-7%	-2%	2%	2%
Nrf2 block	21µM*	u	29µM*	5%	28%	6%	-7%	1.5µM*
miR-21 reporter	-4%	-4%	0%	-9%	-2%	3%	-1%	u
GRP78 ERSR act	-3%	-3%	-6%	-5%	-1%	-4%	-3%	-11%

9) Cc1cccc(-c2nnc(-c3ccccc3)o2)c1
10) Cc1cccc(-c2nnc(SCCC(=O)N3CCOCC3)o2)c1
11) CCCCCN1C=CC(=C2C(=O)c3ccccc3C2=O)C=C1
12) Cc1cc(C(=O)Nc2cccc(NC(=O)c3ccco3)c2)ccc1[N+](=O)[O-]
13) N=C1C=CC(=C(c2ccc(N)cc2)c2ccc(N)cc2)C=C1
14) COc1ccccc1C(c1nnnn1Cc1ccco1)N1CCN(c2cccc(C)c2C)CC1 (stereo not drawn)
15) Cc1ccc(C(=O)NCCC2=CCCCC2)cc1S(=O)(=O)N1CCCCC1
16) Cc1ccc(C(=O)Nc2cccnc2)cc1S(=O)(=O)N1CCCCC1
assay / compound	9	10	11	12	13	14	15	16
Mito fusion act	0%	4%	-2%	0%	x	9%	8%	4%
Nrf2 ARE act	11µM*	-2%	-1%	6%	10%	-1%	7%	1%
A549 tox	16%	6%	-16%	-6%	9.2µM*	-15%	u	-4%
Nrf2 block	x	u	9.2µM*	u	7.3µM*	12µM*	23µM*	21µM*
miR-21 reporter	-47%	23%	u	11%	x	11%	x	-1%
GRP78 ERSR act	6%	-12%	-1%	0%	-2%	-8%	-1%	8%

Sorted by value in GRP78 ERSR act (low to high): four from the list above.
no. | Compound | GRP78 ERSR act
14 | COc1ccccc1C(c1nnnn1Cc1ccco1)N1CCN(c2cccc(C)c2C)CC1 (stereo not drawn) | -8%
15 | Cc1ccc(C(=O)NCCC2=CCCCC2)cc1S(=O)(=O)N1CCCCC1 | -1%
12 | Cc1cc(C(=O)Nc2cccc(NC(=O)c3ccco3)c2)ccc1[N+](=O)[O-] | 0%
9 | Cc1cccc(-c2nnc(-c3ccccc3)o2)c1 | 6%

(list continues)
17) COc1ccc(C(CNC(=O)c2ccc(Cl)c(S(=O)(=O)N3CCCC3)c2)N2CCCC2)cc1 (stereo not drawn)
18) O=C(O)c1ccc(Cl)c(S(=O)(=O)N2CCCCCC2)c1
19) COc1ccc(CCNC(=O)c2ccc(Cl)c(S(=O)(=O)N3CCCC3)c2)cc1
20) CCCCC(c1nnnn1C(C)C)N1CCN(C(=O)c2ccco2)CC1 (stereo not drawn)
21) COc1ccc(C(=O)N/N=C/c2c(C)nn(-c3ccccc3)c2OC)cc1
22) CCCCn1c(SCC(=O)N2CCCCC2C)nc2cc(S(N)(=O)=O)ccc21 (stereo not drawn)
23) CCOC(=O)C1CCCCN1Cc1cccc(F)c1 (stereo not drawn)
24) COc1ccc(CCNC(=O)COc2ccc(S(=O)(=O)NC3CCCCC3)cc2Cl)cc1
assay / compound	17	18	19	20	21	22	23	24
Mito fusion act	1%	-2%	7%	2%	x	4%	-2%	3%
Nrf2 ARE act	0%	0%	-1%	0%	-1%	0%	0%	0%
A549 tox	1%	u	-5%	1%	-7%	2%	-2%	u
Nrf2 block	-4%	26µM*	16µM*	-4%	-18%	x	1%	21µM*
miR-21 reporter	x	-9%	x	-6%	x	2%	-1%	12%
GRP78 ERSR act	-3%	-2%	-1%	-5%	4%	-3%	-5%	-2%

25) Cc1ccc(C(=O)NCc2cccnc2)cc1S(=O)(=O)N1CCCCCC1
26) O=C(NCc1cccnc1)c1ccc(S(=O)(=O)N2CCCCCC2)cc1
27) CN(C)c1ccc(C(CNC(=O)c2ccccc2)N2CCc3ccccc32)cc1 (stereo not drawn)
28) Cc1cc(C(C)(C)C)oc1C(=O)N(CC(=O)NC1CCCC1)c1cccc(C(F)(F)F)c1
29) Cc1ccccc1N(CC(=O)NC1CCCC1)C(=O)c1oc(C(C)(C)C)cc1C
30) CCCc1ccc(C(C)NC(=S)NCc2ccc(F)cc2)cc1 (stereo not drawn)
31) CCC(C)c1ccc(C(C)NC(=S)NCc2ccc(F)cc2)cc1 (stereo not drawn)
32) C/C(=N\S(=O)(=O)c1ccc(C)cc1)N1CCN(S(=O)(=O)c2ccccc2)C1
assay / compound	25	26	27	28	29	30	31	32
Mito fusion act	0%	7%	x	8%	7%	-4%	-10%	-1%
Nrf2 ARE act	0%	0%	14%	0%	0%	2%	1%	3%
A549 tox	-4%	3%	-3%	u	-10%	0%	-21%	-5%
Nrf2 block	8.2µM*	-28%	x	21µM*	u	u	15µM*	7%
miR-21 reporter	1%	5%	-38%	24%	-3%	u	u	-5%
GRP78 ERSR act	-2%	3%	-2%	-2%	-3%	10%	-6%	-1%

Single records, as listed above. Values in the order: Mito fusion act	Nrf2 ARE act	A549 tox	Nrf2 block	miR-21 reporter	GRP78 ERSR act
Listed for `C/C(=N\S(=O)(=O)c1ccc(C)cc1)N1CCN(S(=O)(=O)c2ccccc2)C1` = -1%	3%	-5%	7%	-5%	-1%
Listed for `O=C(NCc1cccnc1)c1ccc(S(=O)(=O)N2CCCCCC2)cc1` = 7%	0%	3%	-28%	5%	3%

(cont.)
33) O=[N+]([O-])c1ccc(Sc2cccc[n+]2[O-])c2nonc12
34) Cc1ccc(CNC(=O)C(=O)NCC2OCCN2S(=O)(=O)c2ccc3c(c2)OCCO3)cc1 (stereo not drawn)
35) COc1ccc(CCNC(=O)C(=O)NCC2OCCN2S(=O)(=O)c2ccc3c(c2)OCCO3)cc1 (stereo not drawn)
36) Cc1ccc(CNC(=O)C(=O)NCC2OCCN2S(=O)(=O)c2ccc(Br)cc2)cc1 (stereo not drawn)
37) Cc1ccc(CNC(=O)C(=O)NCC2OCCN2S(=O)(=O)c2ccc(C)cc2)cc1 (stereo not drawn)
38) O=C(NCc1ccccc1)C(=O)NCC1OCCN1S(=O)(=O)c1ccc2c(c1)OCCO2 (stereo not drawn)
39) Cc1ccc(S(=O)(=O)N2CCOCC2)cc1C(=O)OC1CCOC1=O (stereo not drawn)
40) O=[N+]([O-])c1ccccc1S(=O)(=O)Oc1ccc(/C=N/n2cnnc2)cc1
41) COc1cc(/C=N/n2cnnc2)ccc1OS(=O)(=O)c1ccccc1[N+](=O)[O-]
assay / compound	33	34	35	36	37	38	39	40	41
Mito fusion act	-29%	3%	6%	-1%	1%	5%	-2%	2%	0%
Nrf2 ARE act	-3%	0%	0%	5%	-1%	0%	-1%	u	13µM*
A549 tox	18µM*	8%	-22%	-4%	12%	2%	-1%	u	3%
Nrf2 block	u	10µM*	9.2µM*	16µM*	-12%	0%	7%	4%	3%
miR-21 reporter	u	0%	-1%	15%	0%	-2%	x	10%	-12%
GRP78 ERSR act	-13%	-2%	-5%	-3%	-3%	-1%	-1%	-2%	3%

Source: PubChem BioAssay (National Center for Advancing Translational Sciences (NCATS))
